Measurements as given in patent publication US5196094A, “Separation of 1,1,1-trichloroethane from the lower alcohols by extractive distillation” (priority 1991, dated 1993).
Values joined by “and” are separate entries in the source; they are usually repeats but may differ in a detail not shown here. Identical values can stand only once.

Legend:
Assay type in all cases: physicochemical
[1] = Vapor-liquid equilibrium still, separation of 1,1,1-trichloroethane from methanol
[2] = Vapor-liquid equilibrium still, separation of 1,1,1-trichloroethane from 2-butanol
[3] = Vapor-liquid equilibrium still, separation of 1,1,1-trichloroethane from n-propanol
[4] = Vapor-liquid equilibrium still, separation of 1,1,1-trichloroethane from t-butanol
[5] = 1,1,1-trichloroethane from 2-butanol, vapor-liquid equilibrium still

Substance	Relative Volatility [1]	Relative Volatility [2]	Relative Volatility [3]	Relative Volatility [4]	Relative Volatility [2, 5]
Dipropylene glycol methyl ether acetate	2.2 and 3.6	1.8	1.7		
Tripropylene glycol methyl ether			2.2	1.4	2.3
Dipropylene glycol methyl ether			2.5	1.5	2.3
